{"source": "paper PMC4448209", "about": "“Vaccine-induced Aβ-specific CD8^+ T cells do not trigger autoimmune neuroinflammation in a murine model of Alzheimer’s disease” (Journal of Neuroinflammation, 2015)", "origin": "cited, not measured here", "key": {"BALB/c splenocytes": {"tested_on": "BALB/c splenocytes", "conditions": "BALB/c mice vaccinated with Aβ-encoding DNA, in vitro stimulation with peptide; cited from earlier work", "description": "Besides CD4^+ T cell responses to Aβ, vaccination with full-length Aβ1-42 may also activate Aβ-specific CD8^+ T cells. The characterization of such potentially autoreactive CD8^+ T cells has received little attention, presumably because of their expected implication in the direct killing of CNS cells and thus reduced therapeutic interest."}, "AD patients": {"tested_on": "AD patients", "conditions": "phase 3 studies released summer 2012; 10 (bapineuzumab), 11 (solanezumab); cited from earlier work", "description": "Alzheimer’s disease (AD) is a severe neurodegenerative disorder characterized by progressive loss of memory and cognitive functions. Accumulation of amyloid-β peptide (Aβ), both as soluble oligomers and in the form of amyloid plaques, plays a key role in initiating the pathogenic cascade in AD. […] In line with ..."}}}
{"substance": "Aβ10-20: Aβ-derived peptide used for in vitro stimulation of splenocytes (YEVHHQKLVFF; Amyloid-beta protein 42; UniProt P05067 681-691, looked up, fragment)", "values": [{"measurement": "IFNγ secretion by splenocytes", "setting": "BALB/c splenocytes", "result": "not Aβ10-20"}]}
{"substance": "bapineuzumab: humanized anti-Aβ monoclonal antibody", "values": [{"measurement": "improvement of cognitive performance", "setting": "AD patients", "result": "inefficient at improving cognitive performance"}]}
